Assay results: patent US20250205337A1, “COMPOSITIONS AND METHODS FOR ACTIVATING IMMUNE CELLS” (MDX Management LLC, priority 2022, published 2025)

B1: IL-20: IL-10 family cytokine, STAT3 activator (protein, UniProt Q9NYY1 25-176, looked up)
Interleukin-20: LKTLNLGSCVIATNLQEIRNGFSEIRGSVQAKDGNIDIRILRRTESLQDTKPANRCCLLRHLLRLYLDRVFKNYQTPDHYTLRKISSLANSFLTIKKDLRLCHAHMTCHCGEEAMKKYSQILSHFEKLEPQAAVVKALGELDILLQWMEETE

What was measured:
[1] = tested on: monocytes from cancer patients (cMo); assay: Cytokine depletion assays of Karnelian X1 (cMo survival/adhesion and differentiation); format: cell-based, human
Text: (§1) Analyses of cytokines identified IFNγ, IL-2, IL-10, TNFα, GM-CSF, IL-6, IL-17, M-CSF, and IL-4 (FIG. 5A). Particularly, high levels of IL-10 and IL-6 were detected in Karnelian X1. Further cytokine depletion assays confirmed the critical role of IL-10, and its depletion largely (60-80%) diminished the capacity of cMo adhesion and survival (FIG. 5B).
Three other cytokines, TNFα, IFNγ and IL-4, were also found to be important. Depletion of TNFα or IFNγ in Karnelian X1 reduced both cMo survival (˜20%) and survived cMo differentiation into APCs (30-70% reduction of MHC-II) (FIG. 5B). […] The differentiation of cMo from >100 cancer patient samples was tested. […] FIG. 6E summarizes the roles of each cytokine in Karnelian X1 as defined by detailed experiments. Among other cytokines, IL-2, IL-17 and M-CSF were dispensable, while the roles of GM-CSF and IL-6 were variable. […] This fact of cMo contrasts to Monocytes from healthy donors that generally display nearly unified receptor expression and responses to treatments.
The role of IL-10 and other key factors in KX1 was further studied. As shown in FIG. 9A-9D, depletion of IL-10 diminished (>70%) KX1-mediated activation of Akt, Erk 1/2, and STAT3, and this global reduction of survival signal was associated with an increase in cell death signal through activation of caspase-9 and caspase-3.

[2] = tested on: monocytes from cancer patients (cMo); assay: cMo survival in vitro (STAT3 activators, inhibitors, M-CSF/GM-CSF, KX1); format: cell-based, human
Text: Similarly, cMo poorly respond to GM-CSF alone or GM-CSF plus IL-4 that drives DC differentiation (data not shown). […] Parallel experiments testing the same M-CSF and GM-CSF reagents successfully differentiated Mo from healthy donors with >90% survival rates.
In these experiments (see FIG. 3A), freshly isolated T cells from PBMC from either healthy donors or autologous cancer patients were ligated with anti-CD3 and anti-CD28 antibodies to trigger TCR activation in “autoimmune” CD4 T cells, which secreted abnormally high level of IL-10 (>20 ng/ml) during the first round of anti-CD3/anti-CD28 co-stimulation (FIGS. 3A-3D). After two days, the T cell culture medium was used to treat cMo. […] Further, this culture condition induced their phenotypic differentiation into professional APCs (FIG. 3I).
as §1
IL-10/IL-10R signaling activates the downstream STAT3 signaling pathway. Other cytokines in the IL-10 family can activate STAT3 and were further shown to induce similar levels of cMo survival in vitro. […] IL-6 is a known activator of the STAT3 pathway, however the cMo survival rates were lowest when incubated with IL-6 alone, thereby highlighting the unexpected results of IL-10, IL-12, and their cytokine family members as a pro-survival mechanism for cMos in vitro.
The mechanisms by which KX1 could promote cMo survival was further studied.

Row | Molecule | role of the cytokine in Karnelian X1 for cMo survival and differentiation [1] | cMo survival (and differentiation) on supplementation ([2]; IL-10-depleted KX1 / in place of IL-10) | Effectiveness (cMo survival rate) ([2]; in vitro, at optimal concentration) | Optimal concentration (ng/mL) ([2]; promoting cMo survival in vitro)
1 | IL-2: cytokine in Karnelian X1 | dispensable |  |  | 
2 | B1 |  | could replace IL-10 to support cMo survival and differentiation | 70-85% | >10 ng/mL (10-100)
